Values of other authors in patent US7414031B2, “5-nitro-nucleoside compounds for treating viral infections” (priority 2004, dated 2008).

Details: in vivo; cited from earlier work

## NC(=O)c1ncn([C@@H]2O[C@H](CO)[C@@H](O)[C@H]2O)n1 [Ribavirin, 1-β-D-ribofuranosyl-1H-1,2,-4-triazole-3-carboxamide]
  teratogenicity / embryotoxicity: teratogenic and embryotoxic
